Binding of CDR-mutated scFvs to a peptide of the spike HR2 region

Antigen: PDVDLGDISGINAS, a 14-residue peptide of the SARS-CoV-2 spike HR2 region.

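Library AAYL52 holds single substitutions and randomly drawn double and triple substitutions in the CDRs. Affinity was read by AlphaSeq, a pooled yeast mating assay with surface-displayed partners. Mating (16 h, 30 °C) was followed by selection of diploids and sequencing of their barcodes. Scores were corrected for input abundance and mapped to Kd with protein pairs of known affinity run in the same pool. Mating was done three times.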

Ab-95 is the parent antibody, in scFv form: VH, then a (GGGGS)3 linker, then VL. The heavy chain is unchanged in all variants.
VH: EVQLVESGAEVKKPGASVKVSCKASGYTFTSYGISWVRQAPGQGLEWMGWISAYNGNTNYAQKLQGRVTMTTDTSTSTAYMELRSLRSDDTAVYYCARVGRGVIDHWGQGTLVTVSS
VL: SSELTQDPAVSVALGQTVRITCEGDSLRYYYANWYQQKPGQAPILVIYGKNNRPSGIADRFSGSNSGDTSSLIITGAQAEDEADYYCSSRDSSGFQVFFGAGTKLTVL

Changes read parent residue, position, new residue, counted from the first residue of the VL shown.
This list gathers variants with a substitution at R28 (VL, numbered from residue 1).
Each Kd is an estimate from the mating assay, the geometric mean of the replicates in which the pair was seen; lower is stronger.
An entry "nd" has no value in the source: the pair was not observed among the diploids in any replicate. This suggests poor binding but is not conclusive.
Empty control strains, which show no peptide, gave a signal in 28% of pairings with library AAYL52; the median was 8.2 µM and 95% of these signals were weaker than 800 nM. No background was subtracted.

Variant R28N showed 51 nM (3 of 3 replicates). With R28S F95H F98W the result was 410 nM (3 of 3 replicates). For R28Q N33F S93V, the assay gave 19 µM (2 of 3 replicates). Variant R28D R90A F98Y gave nd (0 of 3 replicates). Variant S26W R28N R53I gave 360 nM (3 of 3 replicates). Variant R28L G94S V97T gave 1.6 µM (1 of 3 replicates). Variant R28D A32S R90V showed 23 µM (3 of 3 replicates). Variant L27G R28S S92W gave nd (0 of 3 replicates).

With R28W Y30T Q96F the result was 130 nM (3 of 3 replicates). With R28W Y30P F98M the result was 1.2 µM (2 of 3 replicates). Variant L27T R28Q S93Y showed 11 µM (2 of 3 replicates). For R28G N51L F98P, the assay gave 68 µM (1 of 3 replicates). With R28M F95V the result was 540 nM (3 of 3 replicates). Variant R28I S89G S93K gave 3.7 µM (2 of 3 replicates). Variant E23M R28K F98C gave 710 nM (3 of 3 replicates). With R28K S55R R90I the result was nd (0 of 3 replicates).

Variant R28A Y30R G49L showed 94 µM (2 of 3 replicates). Variant S26W R28E Y31G showed 1.8 µM (3 of 3 replicates). Variant R28S R90Q V97G showed nd (0 of 3 replicates). Variant R28A S92K V97D showed 370 nM (3 of 3 replicates). Variant R28C Y31H G49H showed 7.2 µM (3 of 3 replicates). Variant D25Y R28W Y30D gave 150 nM (3 of 3 replicates). For R28D, the assay gave 240 nM (3 of 3 replicates). For R28Y N33F N51D, the assay gave 3.3 µM (3 of 3 replicates).

Variant G24A R28G G94K showed 320 nM (3 of 3 replicates). Variant E23L R28W S93A gave 4.9 µM (2 of 3 replicates). Variant D25K R28Y N51T showed 11 µM (2 of 3 replicates). For R28G S89W S93M, the assay gave 650 nM (3 of 3 replicates). With R28A S93G the result was 10 µM (3 of 3 replicates). With R28L G49H F98G the result was 3.2 µM (2 of 3 replicates). Variant R28F K50S R90Y showed 29 µM (1 of 3 replicates). Variant R28W S93M Q96T gave 660 nM (2 of 3 replicates).

For R28I N52Y P54E, the assay gave 5.4 µM (3 of 3 replicates). With R28D V97Q the result was 5.6 µM (3 of 3 replicates). For R28L Y30R, the assay gave 140 nM (3 of 3 replicates). With R28D A32I R90P the result was 1.5 µM (3 of 3 replicates). With R28V P54A S92V the result was 290 nM (3 of 3 replicates). Variant R28D G49P S55I showed nd (0 of 3 replicates). For R28Y Q96D, the assay gave 660 nM (3 of 3 replicates). Variant G24D R28S N51K showed 3.0 µM (2 of 3 replicates).

Variant R28K R90W S92R gave 350 nM (3 of 3 replicates). Variant R28V Y30L V97M gave 1.6 µM (1 of 3 replicates). Variant R28K R53G S92N gave 240 nM (3 of 3 replicates). Variant R28A Y30C S92Q gave 1.5 µM (3 of 3 replicates). Variant R28F K50C F95R showed 1.5 µM (3 of 3 replicates). Variant R28Q Y31H S92F gave 110 nM (3 of 3 replicates). Variant S26L R28E S92V gave 8.1 µM (2 of 3 replicates). With R28E S89V V97I the result was 1.1 µM (2 of 3 replicates).

Variant R28W N51M R53C gave 2.2 µM (1 of 3 replicates). Variant R28F G94I showed nd (0 of 3 replicates). Variant R28C N33Q N52R showed nd (0 of 3 replicates).

The first 5 variants above that were never detected:

R28D R90A F98Y: nd (0 of 3 replicates).
L27G R28S S92W: nd (0 of 3 replicates).
R28K S55R R90I: nd (0 of 3 replicates).
R28S R90Q V97G: nd (0 of 3 replicates).
R28D G49P S55I: nd (0 of 3 replicates).

Source: Engelhart et al. 2022 (doi:10.1038/s41597-022-01779-4), MIT Lincoln Laboratory and A-Alpha Bio; data file from the FLAb repository.